Data taken from patent US20040106172A1, “Hydrolyzing/dehydration condensing enzymes, method for producing the enzyme and method for synthesizing amide by using the enzyme” (Okayama University, priority 2002, published 2004).

Test system: Capsaicin hydrolyzing/dehydration condensing enzyme of the invention
Protocol: The reaction temperature is 37° C.
As a comparative example, aminoacylase is used. The resulting capsaicin analog is quantitatively measured by HPLC analysis of the hexane phase.

CCCCCCCCCCCC(=O)O [Lauric acid]
reactivity in synthesis between vanillylamine and saturated fatty acids: highest
